The target in the experiment is T1, E-selectin (Homo sapiens, UniProt P16581).
T1 sequence (P16581 22-554): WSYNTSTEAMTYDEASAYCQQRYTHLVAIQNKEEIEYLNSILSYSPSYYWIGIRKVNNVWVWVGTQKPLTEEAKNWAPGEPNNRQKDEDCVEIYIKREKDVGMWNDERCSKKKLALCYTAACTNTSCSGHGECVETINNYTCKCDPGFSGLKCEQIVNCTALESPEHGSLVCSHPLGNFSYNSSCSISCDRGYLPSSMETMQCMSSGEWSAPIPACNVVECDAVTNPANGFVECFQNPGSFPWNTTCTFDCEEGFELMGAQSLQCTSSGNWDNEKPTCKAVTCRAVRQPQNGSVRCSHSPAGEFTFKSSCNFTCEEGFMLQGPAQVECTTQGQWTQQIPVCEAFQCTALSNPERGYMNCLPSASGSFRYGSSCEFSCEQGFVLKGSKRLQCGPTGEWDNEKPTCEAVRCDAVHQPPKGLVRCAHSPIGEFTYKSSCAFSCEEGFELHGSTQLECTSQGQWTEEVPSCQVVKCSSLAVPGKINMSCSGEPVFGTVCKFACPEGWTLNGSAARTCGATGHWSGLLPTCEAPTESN
Kind of experiment: HL60 cell adhesion assay (labeled HL60 cells adhering to immobilized E-selectin). Format: cell-based. Also noted: truncated form comprising the complete extracellular domain (amino acids 1 through 554); made in house. How it is done: By comparing test wells with control wells (no receptor), one can determine whether a peptide binds to E-selectin specifically. Peptides found to bind specifically to E-selectin were then synthesized as the free peptide (no phage) and tested in an HL60 cell adhesion competition assay. The competition assay was carried out similarly to the ELISA, except that labeled HL60 cells were added in addition to the peptide [the control wells were typically of at least two types: (1) no immobilized E-selectin; and (2) no peptide; see Example 1]. In this regard, HL60 cells are known to contain surface glycoconjugates which bind to E-selectin.
Peptides that block the binding of labeled HL60 cells to E-selectin are then evaluated to determine their IC50 -HL60 in the manner also specified in Example 1. […]
After the test compound incubation period, 100 μL of labeled HL60 cells were added to each well, and the microtiter plate was incubated at 4° C. for 30 minutes. […] After this incubation, aliquots were removed from each well and placed in scintillation vials; scintillation fluid was added to each vial; and the radioactivity in each aliquot was quantitated by liquid scintillation counting. […]
The concentration of any peptide or peptide mimetic required to reduce by 50% the binding of HL60 cells to E-selectin as per the assay of Example 1 is determined by the following procedure. […]

As to “monofucosyl monosialyllactose [SLe^x, reference compound]”, under “500 to 1000 μM, FIG. 2B”, the “blocking of cell adhesion (in words)” value is “does block cell adhesion”. For the same substance, under “about 200 μM, FIG. 1”, the “blocking of HL60 binding / cell adhesion (in words)” value was “did not exhibit significant blocking”.
